Assay results: patent publication US20200345862A1, “TRANSITION METAL-BASED FUNCTIONAL MOIETIES FOR PREPARING CELL TARGETING CONJUGATES” (priority 2017, published 2020)

Conditions: [NaCl]=200 mM, HEPES pH 8.1, 47° C., 4 h; FIG. 4

[PtCl((Fe)DFO-pip)(ethane-1,2-diamine)]^+ TFA^− [4a]
concentration of the semi-final product after incubation (stability): 94%
